A selection: hits, their analogues and other compounds. The true share with any hit is near 16%.
TDP1 block – inhibitors of human tyrosyl-DNA phosphodiesterase TDP1 | AID 485290 | Potency, µM (highest dose often 130 µM), for the others: top-dose activity change, negative = inhibition, most hits filed as inhibitors | 350,000 compounds, 0.28% hits | recombinant TDP1, AlphaScreen DNA substrate cleavage; also: potency is read from the fitted curve at half-maximal effect; % is scaled to controls: 0 for no effect and ±100 for the full control effect; nearly all actives have a fitted effect of over 40% in size
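Tdp1 1 nM final; 15 min RT w/ cpd; substrate 15 nM, 5 min; beads 10 ug/ml, 10 min; AlphaScreen read. Neg ctrl: no enzyme.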
DT40 TDP1 CPT – growth inhibition of DT40 Tdp1-/-;hTDP1 cells with camptothecin (screen for TDP1 inhibitors); Potency, µM (doses to about 46.2 µM), inactives show at the highest dose activity change, negative = growth inhibition, usual class: inhibitors; chicken DT40 Tdp1-/-;hTDP1 cells + 20 nM CPT, ATP luminescence, 48 h; AID 686979; 420,000 compounds, 12% hits; also: potency is read from the fitted curve at half-maximal effect; % is scaled to controls: 0 for no effect and ±100 for the full control effect; nearly all actives have a fitted effect of over 55% in size
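Cell growth measured by CellTiter-Glo luminescence after a minimum 48 h, 37 C compound exposure with 20 nM CPT in Tdp1-knockout DT40 cells stably expressing hTDP1, seeded 400/well; qHTS titration format.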
miR-21 reporter – miR-21 reporter, rising signal; HeLa miR-21 FLuc reporter, luciferase, 48 h; Potency, µM (top dose mostly 38.3 µM), without a hit: at the top dose reporter change, positive = more light; 340,000 tested, under 10 active; active = well fitted rising curve with a large enough effect; inconclusive = small, poorly fitted or top-dose-only effect; inactive = no such curve, though single readings can be large or run the other way;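 note: % of control where 0% means no effect; miR-21 action dims this reporter so a rising signal means less miR-21 action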
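Luminescence from a firefly luciferase reporter carrying a miR-21 binding site downstream, stably expressed under a CMV promoter in HeLa cells that make miR-21 endogenously, reports miRNA modulation after 48 h compound exposure up to approximately 40uM final.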
TDP1 cell noCPT – qHTS for Inhibitors of human tyrosyl-DNA phosphodiesterase 1 (TDP1): qHTS in cells in absence of CPT | Potency, µM (doses to about 46.2 µM), without a hit: at the top dose activity change, negative = growth inhibition, hits mostly inhibitors | DT40 Tdp1-/- hTDP1 cells, no CPT, ATP luminescence, 48 h | 420,000 compounds, 15% hits; also: potency is read from the fitted curve at half-maximal effect; % is scaled to controls: 0 for no effect and ±100 for the full control effect; nearly all actives have a fitted effect of over 55% in size
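Chicken DT40 Tdp1-/- cells complemented with human TDP1, screened without camptothecin (DMSO vehicle only), 400 cells/well. Compounds pin-transferred, cells incubated at 37 °C for at least 48 hr. Growth read as ATP-dependent luminescence (CellTiter-Glo, 30 min at RT).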
uPA surface inh – blocks generation of uPA at the cell surface; Potency, µM (top dose mostly 38.3 µM), for the others: at the highest dose activity change, negative = inhibition, hits mostly inhibitors; AID 540303; cell surface uPA generation assay, qHTS; 330,000 compounds, 0.31% hits; active = well fitted inhibition curve with a large enough effect; inconclusive = small, poorly fitted or top-dose-only effect; inactive = no such curve, though single readings can be large or run the other way; tested in mouse RAW 264.7 cells; also: potency is read from the fitted curve at half-maximal effect; % is scaled to controls: 0 for no effect and ±100 for the full control effect; nearly all actives have a fitted effect of over 55% in size
Active calls of the source: *; ? = inconclusive; / = not tested or not shown; [ ] = remark or other dose. Unless noted, calls follow the shape of the dose curve; as a rule, active = well fitted curve in the direction sought with a large enough effect; inconclusive = small, poorly fitted or top-dose-only effect, or another doubt; inactive = no such curve, though single readings can be large; an effect the other way counts as inactive or inconclusive.

| smiles | TDP1 block | DT40 TDP1 CPT | miR-21 reporter | TDP1 cell noCPT | uPA surface inh |
| --- | --- | --- | --- | --- | --- |
| COc1cc(OC)cc(C2=Cc3ccccc3C(CC(=O)c3ccco3)N2c2ccc(-c3cncnc3)cc2)c1 (centres undefined) | / | 8.2µM* | / | ? | / |
| COc1ccc2nc(NC(=O)CSc3nnc4n3C(C)(C)Cc3ccccc3-4)sc2c1 | -4.2% | -7.7% | -3.1% | -15.2% | -1.1% |
| CCOC(=O)c1c(S(=O)(=O)N2CCN(c3ccccc3OC)CC2)c(C)n(C)c1C | 7.4% | ? | -14.8% | ? | / |
| COc1cc(OC)cc(C2=Cc3ccccc3C(CC(C)=O)N2c2ccc(C#CCCO)cc2)c1 (centres undefined) | / | 20.6µM* | / | ? | / |
| Cc1cccc(NC(=S)NCC23C=CC(O2)C2C(=O)N(c4ccc(Cl)cc4)C(=O)C23)c1 (centres undefined) | 5.7% | ? | -2.5% | 20.6µM* | -3.2% |
| Cc1ccc(NC(=S)NCC23C=CC(O2)C2C(=O)N(c4ccc(C)cc4)C(=O)C23)cc1 (centres undefined) | 10.3% | 18.4µM* | -6.4% | ? | -4.9% |
| Cc1ccc(S(=O)(=O)NCC23C=CC(O2)C2C(=O)N(c4ccccc4)C(=O)C23)cc1 (centres undefined) | 9.1% | ? | 14.0% | ? | 12.0% |
| CC(C)(C)OC(=O)NCC12C=CC(O1)C1C(=O)N(Cc3ccccc3)C(=O)C12 (centres undefined) | 5.5% | ? | 10.7% | ? | 5.0% |
| Cc1ccc(N2C(=O)C3C4C=CC(CNC(=S)N5CCN(c6ccccc6)CC5)(O4)C3C2=O)cc1 (centres undefined) | 6.9% | 18.4µM* | 2.2% | 18.4µM* | -0.2% |
| COc1ccc(N2CCC(CNC(=S)Nc3cccc(C)c3)C2)cc1 (centres undefined) | 11.7% | ? | -9.2% | ? | 11.6% |
| Cn1cc(CN2CCC(n3nccc3NC(=O)c3ccccc3Cl)CC2)cn1 | 4.4%[56.1 µM] | -2.2% | -1.2% | -5.2% | 0.0% |
| COc1ccccc1C(=O)Nc1ccnn1C1CCN(Cc2cn(C)c3ccccc23)CC1 | 5.4% | ? | 29.9% | ? | 10µM* |
| Cc1cc(C)c(CN2CCC(n3nccc3NC(=O)c3ccccc3Cl)CC2)cc1C | -0.9% | 14.6µM* | 8.8% | ? | -7.0% |
| CCCCc1ncc(CN2CCC(n3nccc3NC(=O)c3ccccc3OC)CC2)[nH]1 | 2.0% | ? | -8.6% | 14.6µM* | 0.7% |
| CCn1nc(C)c(CN2CCC(n3nccc3NC(=O)c3ccccc3OC)CC2)c1C | 3.0%[56.1 µM] | -24.4% | -4.3% | 0.4% | 13.3% |
| CCc1ccc(CN2CCC(n3nccc3NC(=O)c3ccccc3Cl)CC2)cc1 | 1.0% | 23.1µM* | 17.2% | ? | 0.4% |

An excerpt from above in order of SMILES length, smallest number first:
| smiles | TDP1 block | DT40 TDP1 CPT | miR-21 reporter | TDP1 cell noCPT | uPA surface inh |
| --- | --- | --- | --- | --- | --- |
| CCc1ccc(CN2CCC(n3nccc3NC(=O)c3ccccc3Cl)CC2)cc1 | 1.0% | 23.1µM* | 17.2% | ? | 0.4% |
| CCn1nc(C)c(CN2CCC(n3nccc3NC(=O)c3ccccc3OC)CC2)c1C | 3.0%[56.1 µM] | -24.4% | -4.3% | 0.4% | 13.3% |
| CCCCc1ncc(CN2CCC(n3nccc3NC(=O)c3ccccc3OC)CC2)[nH]1 | 2.0% | ? | -8.6% | 14.6µM* | 0.7% |

Next part:
| smiles | TDP1 block | DT40 TDP1 CPT | miR-21 reporter | TDP1 cell noCPT | uPA surface inh |
| --- | --- | --- | --- | --- | --- |
| CCN1CCN(c2c(S(=O)(=O)c3ccc(C)c(C)c3)cnc3ccc(F)cc23)CC1 | 0.0% | ? | 15.7% | ? | -15.9% |
| COc1cc(CO)c(Br)cc1OCC(=O)Nc1ccccc1C | 4.6% | -6.1% | -25.5% | 9.9% | 6.8% |
| Cc1nn(CC(=O)NCc2ccc(OC(C)C)cc2)c(=O)c2cc3occc3n12 | 0.5% | / | 0.2% | / | / |
| COc1ccccc1C(=O)Nc1ccnn1C1CCN(Cc2cc(C)c(C)cc2C)CC1 | 0.7% | ? | 22.8% | 18.4µM* | ? |
| CCCn1ncc(CN2CCC(n3nccc3NC(=O)c3ccccc3OC)CC2)c1C | 2.3% | ? | -1.7% | -25.0% | -13.4% |
| CN(C)c1ccc2c(c1)Sc1cc(N(C)C)ccc1N2C(=O)c1ccccc1 | 8.2% | ? | 0.8% | 20.6µM* | 9.9% |
| O=C(O)C(=O)/C(=C\c1cccc2ccccc12)c1ccc2ccccc2n1 | 2.0% | ? | -11.7% | 18.4µM* | -12.4% |
| COc1ccccc1C(=O)c1nc2ccccc2n1C | / | -16.2% | -9.1% | 7.9% | -15.0% |

Not a retest: an excerpt of the list.
| smiles | TDP1 block | DT40 TDP1 CPT | miR-21 reporter | TDP1 cell noCPT | uPA surface inh |
| --- | --- | --- | --- | --- | --- |
| O=C(O)C(=O)/C(=C\c1cccc2ccccc12)c1ccc2ccccc2n1 | 2.0% | ? | -11.7% | 18.4µM* | -12.4% |
| COc1ccccc1C(=O)c1nc2ccccc2n1C | / | -16.2% | -9.1% | 7.9% | -15.0% |

(more compounds)
Each structure is followed by: TDP1 block, DT40 TDP1 CPT, miR-21 reporter, TDP1 cell noCPT, uPA surface inh
> COc1ccc(N/C=C(\C#N)c2nc3ccccc3n2C)c(OC)c1
    4.2%, ?, -15.3%, 23.1µM*, -1.4%
> CCn1c(/C(C#N)=C/c2ccccc2Cl)nc2ccccc21
    7.0%, ?, -17.3%, 25.9µM*, /
> Cn1c(/C(C#N)=C/c2ccccc2Br)nc2ccccc21
    -0.4%[12.3 µM], 14.6µM*, 7.6%, 11.6µM*, /
> CCn1c(/C(C#N)=N/O)nc2ccccc21
    2.6%, 5.7%, -28.3%, 3.0%, -1.8%
> NNC(=O)CN1C(c2ccccc2Br)=Nc2ccc(Br)cc2C1c1ccccc1 (centres undefined)
    5.3%, ?, 4.8%, 16.4µM*, -0.9%
> c1ccc(OCCNc2nc(NCC3CC3)nc3cc(-c4ccccc4)sc23)cc1
    /, 5.8µM*, /, 5.8µM*, /
> O=[N+]([O-])c1ccccc1NCCOc1ccccc1
    8.5%, -7.5%, -74.0%, -2.1%, -4.5%
> c1ccc(CNc2nc(NCC3CC3)nc3cc(-c4ccccc4)sc23)cc1
    /, 9.2µM*, /, 10.3µM*, /
> Cc1nc(NCCO)c2nc(-c3ccccc3)n(CC3CCN(C)CC3)c2n1
    6.9%, /, /, /, /
> O=C1CC2(CCN1)CCN(Cc1ccccc1)CC2
    /, -1.7%, /, -12.7%, 8.6%
> COc1cc(C=O)ccc1OCCOCCOc1ccc(Cl)cc1
    -3.4%, ?, -1.0%, ?, 3.7%
> COc1cc(C=O)ccc1OCCOCCOc1ccc(Cl)cc1Cl
    /, ?, /, 14.6µM*, 3.0%
> Cc1cnc(NC(=O)CN(C)S(=O)(=O)c2ccc(Cl)cc2)s1
    4.8%, -18.1%, 5.9%, -10.5%, -4.0%
> O=S1(=O)CCC(NC(=S)SCCOc2ccccc2)C1 (centres undefined)
    -8.4%, 8.2µM*, 4.5%, 10.3µM*, 12.2%
> CCCCSC(=S)NC1CCS(=O)(=O)C1 (centres undefined)
    5.6%, 9.2µM*, 14.4%, 11.6µM*, -8.2%
> COc1cc2cc(C(=O)NCCc3ccccc3)[nH]c2cc1OC
    /, 17.1%, -5.1%, 12.6%, -1.5%
> CC(=O)Nc1nonc1-c1nnc(SCC(=O)Nc2ccccc2)n1-c1ccccc1
    3.6%, -1.7%, -2.5%, -26.5%, /
> Cn1c(SCC(=O)NNC(=O)Cc2ccccc2)nnc1-c1ccc(Cl)cc1
    0.0%, -11.4%, -1.3%, -7.2%, 0.7%
> COc1ccc(-c2nnc(SCC(=O)Nc3ncc(C)s3)n2-c2ccccc2)cc1OC
    3.0%, 20.6µM*, 20.9%, 23.1µM*, -12.3%
> COc1ccccc1NC(=O)CC(=O)CSc1nnc(-c2ccc(C)cc2)n1-c1ccccc1
    3.5%, 2.5%, -11.5%, -13.3%, 4.8%
> COc1ccccc1NC(=O)CSc1nnc(-c2nonc2NC(C)=O)n1-c1ccccc1
    -0.5%, ?, -14.8%, 23.1µM*, /
> COc1ccc(-c2nnc(SCC(=O)NNC(=O)Cc3ccccc3)n2C)cc1OC
    2.7%, ?, -8.0%, 23.1µM*, -1.5%
> CC(=O)Nc1nonc1-c1nnc(SCc2cccc(Br)c2)n1C
    -2.6%, 16.4µM*, -1.2%, 18.4µM*, /

Screening data (PubChem BioAssay)
